Test [1] has as its target MAO A (Homo sapiens (Human), UniProt P21397). Put plainly: Monoamine Oxidase assay (MAO-Glo), MAO A. Format: biochemical.
Test [2] has as its target MAO B (Homo sapiens (Human), UniProt P27338). Put plainly: Monoamine Oxidase assay (MAO-Glo), MAO B. It counts as biochemical.

The chains behind the UniProt entries cited, without tags or fusion partners.
UniProt P21397, whole entry: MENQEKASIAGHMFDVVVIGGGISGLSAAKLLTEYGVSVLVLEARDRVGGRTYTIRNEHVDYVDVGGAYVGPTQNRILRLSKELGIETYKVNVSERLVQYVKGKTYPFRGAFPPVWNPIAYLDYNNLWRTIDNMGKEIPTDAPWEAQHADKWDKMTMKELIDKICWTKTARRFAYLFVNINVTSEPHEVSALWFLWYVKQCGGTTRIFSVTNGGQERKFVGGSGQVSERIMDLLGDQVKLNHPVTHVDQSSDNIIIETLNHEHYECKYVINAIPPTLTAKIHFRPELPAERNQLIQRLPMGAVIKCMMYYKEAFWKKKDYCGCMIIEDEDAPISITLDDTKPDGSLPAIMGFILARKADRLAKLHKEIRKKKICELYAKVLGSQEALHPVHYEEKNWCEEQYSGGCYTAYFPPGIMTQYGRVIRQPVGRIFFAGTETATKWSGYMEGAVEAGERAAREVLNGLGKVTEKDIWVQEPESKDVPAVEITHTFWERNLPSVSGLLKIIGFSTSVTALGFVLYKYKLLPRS
UniProt P27338, whole entry: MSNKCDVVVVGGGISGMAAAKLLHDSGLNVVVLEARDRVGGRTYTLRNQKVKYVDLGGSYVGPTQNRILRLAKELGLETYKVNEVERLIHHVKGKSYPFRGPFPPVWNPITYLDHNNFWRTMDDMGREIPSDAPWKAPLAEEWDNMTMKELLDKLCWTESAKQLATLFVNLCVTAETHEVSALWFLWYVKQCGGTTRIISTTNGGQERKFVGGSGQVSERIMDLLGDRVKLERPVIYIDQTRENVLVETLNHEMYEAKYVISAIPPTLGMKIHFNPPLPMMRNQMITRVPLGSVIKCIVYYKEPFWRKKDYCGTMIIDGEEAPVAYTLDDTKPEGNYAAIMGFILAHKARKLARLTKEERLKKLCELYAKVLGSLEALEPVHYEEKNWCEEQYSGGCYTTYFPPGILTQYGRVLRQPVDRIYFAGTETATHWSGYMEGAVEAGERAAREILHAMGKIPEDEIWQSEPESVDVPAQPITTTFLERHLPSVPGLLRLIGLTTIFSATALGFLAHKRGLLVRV

As for `C/C(=N\NC(=O)c1cccc(S(=O)(=O)N(C)C)c1)c1cc(Cl)ccc1O` [Compound 18, (E)-3-(2-(1-(5-chloro-2-hydroxyphenyl)ethylidene)hydrazinecarbonyl)-N,N-dimethylbenzenesulfon-amide], the half-maximal inhibitory concentration (IC50) in test [1] and in test [2] was above 300 µM throughout.

The IC50 is the midpoint of a concentration-inhibition curve.

Source of the values: patent publication US8987335B2, “Substituted (E)-N′-(1-phenylethylidene)benzohydrazide analogs as histone demethylase inhibitors” (University of Utah Research Foundation, priority 2011, dated 2015).
